Experimental findings from paper PMC9706575 (Journal of Medicinal Chemistry, 2022) are described below.

Sequences of proteins named here, by UniProt entry; tags and fusion partners are left off. Residues count along the entry.
UniProt P29317, 28-206 limits assumed: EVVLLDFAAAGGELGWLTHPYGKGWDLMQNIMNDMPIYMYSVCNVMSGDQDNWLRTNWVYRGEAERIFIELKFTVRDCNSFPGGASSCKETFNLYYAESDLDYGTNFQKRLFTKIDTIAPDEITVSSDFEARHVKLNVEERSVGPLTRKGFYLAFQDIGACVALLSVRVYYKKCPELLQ

The target of one experiment is T1, EphA2-LBD (Homo sapiens, UniProt P29317).
T1 construct: made in house
As to the kind of experiment: DELFIA displacement assay. To be noted: monomeric agents; 10 nM EphA2 protein. It is filed as binding.
As to `Cc1ccccc1-c1ccc(C[C@H](NC(=O)[C@H](C)NC(=O)[C@H](CC(C)C)NC(=O)[C@H](Cc2ccc3ccccc3c2)NC(=O)CN2CCNCC2)C(=O)N2CCC[C@H]2C(=O)N[C@@H](CC(=O)O)C(=O)N[C@@H](CO)C(=O)N[C@H](C(=O)N2CCC[C@H]2C(=O)N[C@@H](Cc2ccc(Cl)cc2)C(=O)N[C@@H](CCCNC(=N)N)C(=O)N2CCC[C@H]2C(N)=O)C2CCCCC2)cc1` [Compound 36, PiperazAcAcid-(2Nal)-L-A-(2Me-Bip)-PDS-Chg-P-(4Cl-Phe)-RP-CONH2], the IC50 (as a rule, the concentration needed to halve the response being measured) turned out to be 30.8 nM.

Turning to `Cc1ccccc1-c1ccc(C[C@H](NC(=O)[C@H](C)NC(=O)[C@H](CC(C)C)NC(=O)[C@H](Cc2ccc(O)cc2)NC(=O)CN2CCNCC2)C(=O)N2CCC[C@H]2C(=O)N[C@@H](CC(=O)O)C(=O)N[C@@H](CO)C(=O)N[C@H](C(=O)N2CCC[C@H]2C(=O)N[C@@H](Cc2ccc(Cl)cc2)C(=O)N[C@@H](CCCNC(=N)N)C(=O)N2CCC[C@H]2C(N)=O)C2CCCCC2)cc1` [Compound 37, PiperazAcAcid-Y-L-A-(2Me-Bip)-PDS-Chg-P-(4Cl-Phe)-RP-CONH2], the IC50 came to 16.5 nM. Against the preceding compound, the IC50 is about 1.9-fold lower.

The target of the next experiment is T1, EphA2-LBD. The experiment is described as follows: Reverse ITC binding to EphA2-LBD. Conditions: 25 mM Tris pH 7.5, 150 mM NaCl, 25 °C, 1% DMSO.
`C[C@H](NC(=O)[C@H](CO)NC(=O)[C@H](Cc1ccc(O)cc1)NC(=O)CN1CCNCC1)C(=O)N[C@@H](Cc1ccc(-c2ccccc2)cc1)C(=O)N1CCC[C@H]1C(=O)N[C@@H](CC(=O)O)C(=O)N[C@@H](CO)C(=O)N[C@H](C(=O)N1CCC[C@H]1C(=O)N[C@@H](Cc1ccc(Cl)cc1)C(=O)N[C@@H](CCCNC(=N)N)C(=O)N1CCC[C@H]1C(N)=O)C1CCCCC1` [Compound 32, PiperazAcAcid-YSA-(Bip)-PDS-Chg-P-(4Cl-Phe)-RP-CONH2]: the Kd – broadly, the free concentration of one partner at which half of the binding sites on the other are occupied at equilibrium, for simple one-to-one binding – was determined as 68 nM.

For `CC(C)C[C@H](NC(=O)[C@H](Cc1ccc(O)cc1)NC(=O)CN1CCNCC1)C(=O)N[C@@H](C)C(=O)N[C@@H](Cc1ccc(-c2ccccc2)cc1)C(=O)N1CCC[C@H]1C(=O)N[C@@H](CC(=O)O)C(=O)N[C@@H](CO)C(=O)N[C@H](C(=O)N1CCC[C@H]1C(=O)N[C@@H](Cc1ccccc1)C(=O)N[C@@H](CCCNC(=N)N)C(=O)N1CCC[C@H]1C(N)=O)C1CCCCC1` [Compound 33, PiperazAcAcid-Y-L-A-(Bip)-PDS-Chg-PFRP-CONH2], binding was characterised by a dissociation constant (Kd) of 39 nM.

With `C[C@H](NC(=O)[C@H](CO)NC(=O)[C@H](Cc1ccc(O)cc1)NC(=O)CN1CCNCC1)C(=O)N[C@@H](Cc1ccc(-c2ccccc2)cc1)C(=O)N1CCC[C@H]1C(=O)N[C@@H](CC(=O)O)C(=O)N[C@@H](CO)C(=O)N[C@H](C(=O)N1CCC[C@H]1C(=O)N[C@@H](Cc1ccccc1)C(=O)N[C@@H](CCCNC(=N)N)C(=O)N1CCC[C@H]1C(N)=O)C1CCCCC1` [Compound 31, PiperazineAcAcid-YSA-Bip-PDS-Chg-PFRP-CONH2], the Kd turned out to be 54 nM.

In turn, `C[C@H](NC(=O)[C@H](CO)NC(=O)[C@H](Cc1ccc2ccccc2c1)NC(=O)CN1CCNCC1)C(=O)N[C@@H](Cc1ccc(-c2ccccc2)cc1)C(=O)N1CCC[C@H]1C(=O)N[C@@H](CC(=O)O)C(=O)N[C@@H](CO)C(=O)N[C@H](C(=O)N1CCC[C@H]1C(=O)N[C@@H](Cc1ccccc1)C(=O)N[C@@H](CCCNC(=N)N)C(=O)N1CCC[C@H]1C(N)=O)C1CCCCC1` [Compound 34, PiperazAcAcid-(2Nal)-SA-(Bip)-PDS-Chg-PFRP-CONH2] registered a Kd of 74 nM.

In turn, `Cc1ccccc1-c1ccc(C[C@H](NC(=O)[C@H](C)NC(=O)[C@H](CC(C)C)NC(=O)[C@H](Cc2ccc(O)cc2)NC(=O)CN2CCNCC2)C(=O)N2CCC[C@H]2C(=O)N[C@@H](CC(=O)O)C(=O)N[C@@H](CO)C(=O)N[C@H](C(=O)N2CCC[C@H]2C(=O)N[C@@H](Cc2ccc(Cl)cc2)C(=O)N[C@@H](CCCNC(=N)N)C(=O)N2CCC[C@H]2C(N)=O)C2CCCCC2)cc1` [Compound 37, PiperazAcAcid-Y-L-A-(2Me-Bip)-PDS-Chg-P-(4Cl-Phe)-RP-CONH2] registered a Kd of 49 nM.
